Data from PubChem BioAssay AID493237 (Broad Institute, 2011).
The entries are a selection whose mix differs from that of the whole data set. Activity calls are given as the source filed them.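 The calls were made as follows: active = fitted curve reaching 40% activation at a concentration no higher than the top valid dose tested; inconclusive = flat curve between 30 and 70% activation, or poor fit; inactive = the rest, including opposite-direction effects.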

Test: HRE reporter activators under added iron – cell-based, U2OS, luminescence, dry powder, set 2, mechanism study for HIF pathway activator project, dose response (AID 493237)
Settings: U2OS HRE-luciferase reporter, iron condition, at 38 µM (top of the series)
In short: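 System: Human U2OS osteosarcoma cells with stable 3×HRE-driven luciferase reporter | Quantity: 6,000 cells per well | Also added: Ferric nitrate at 50 µM final, added before compound | Dosing: 8-point series in threefold dilution steps | Timing: 24 h plating, then 24 h compound exposure at 37 °C | Measured by: Steady-Glo luminescence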

In the case of `O=c1[nH]c2ccccc2n1C1CCN(Cc2ccc(O)c3ncccc23)CC1`, the activation is reported as inactive: -1.2%.
